Assay results from patent publication US20100041068A1, “DEEPLY QUENCHED ENZYME SENSORS AND BINDING SENSORS” (priority 2006, published 2010).

What was measured:
[1] = tested on: peptide P9, Pyr-Ahx-GRTGRRFSYP-amide (unphosphorylated)
[2] = tested on: peptide P2, Ac-GRTGRRDap(Pyr)SYP-amide (unphosphorylated)
[3] = tested on: peptide P5, Ac-Dap(Pyr)RTGRRFSYP-amide (unphosphorylated)

For “cAMP-dependent protein kinase (PKA), murine catalytic subunit”, the “Km (PKA-catalysed phosphorylation, fluorescence progress curves, 30 µM 14-3-3τ)” value (“Km” for short) [1] was “Km=1.6±0.9 µM”, the “Km” value [2] was “Km=7.1±1.9 µM” and the “Km” value [3] was “Km=1.7±0.4 µM”.
